The source of these data is PubChem BioAssay AID1490 (National Center for Advancing Translational Sciences (NCATS), 2009).

Only a part is listed here, and it is no random draw. Results filed as inconclusive are left out. Activity calls are given as the source filed them. Calls follow the shape of the dose curve; as a rule, active = well fitted inhibition curve with a large enough effect; inconclusive = small, poorly fitted or top-dose-only effect, or another doubt; inactive = no such curve, though single readings can be large or run the other way.
Potency is read from the fitted curve at half-maximal effect.

The assay has as its target 4'-phosphopantetheinyl transferase ffp (Bacillus subtilis) (UniProt Q9F4F7). Description: qHTS Assay for Inhibitors of Bacillus subtilis Sfp phosphopantetheinyl transferase (PPTase).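 Also: the enzyme is Sfp with the accession as filed and its product quenches rhodamine fluorescence.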 Particulars: Biochemical Sfp PPTase activity. In general terms: qHTS replaces the single test concentration by a dilution series.
Consider `CC[n+]1c(/C=C/N(C)c2ccccc2)oc2ccc(Cl)cc21`, for which the Potency is active: 50.1 µM.

In the case of `CNCCCCCCCCSc1nc(C(C)C)ccc1C(=O)c1cccs1`, the Potency was active: 39.8 µM.
